Here are results for three substances from patent US20060110401A1, “Mixture of peptides from c and ns3 proteins of the hepatitis c virus and applications thereof” (priority 2002, published 2006).

By UniProt entry, the sequences of proteins in these tests, tags left out. Residues count along the entry.
UniProt P20036, 29-222, chain 1 of 2: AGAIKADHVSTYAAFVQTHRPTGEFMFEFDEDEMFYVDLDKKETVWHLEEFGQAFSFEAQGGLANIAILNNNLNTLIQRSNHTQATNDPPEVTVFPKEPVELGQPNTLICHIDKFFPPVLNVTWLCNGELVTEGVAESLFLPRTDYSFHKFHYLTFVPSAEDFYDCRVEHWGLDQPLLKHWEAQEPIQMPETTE

Experiment [1] concerns the target HLA-DP402 (DPB1*0402) (human) (UniProt P20036). As to the kind of experiment: competition binding.
The target in experiment [2] is HLA-DP401 (DPB1*0401) (human) (UniProt P20036). As to the kind of experiment: competition binding.
For the next experiment, the target named is DR15 (human) (UniProt P01903). As to the kind of experiment: competition.
The target in another experiment is DR13 (human) (UniProt P01903). As to the kind of experiment: competition.

The substance 5C 127-149 registered a half-inhibitory concentration (IC50) in experiment [1] of 5.43 µM.

As for 14N 1149-1172, the IC50 in experiment [2] and in experiment [1] was over 100 µM each time.

As for 4C104-133, the half-inhibitory concentration (IC50) with DR15 (human) is 1.25 µM; with DR13 (human) it was over 100 µM.

The term IC50 denotes the concentration at which inhibition is half-maximal. Higher therefore signals weaker potency.
